These results are taken from ChEMBL document CHEMBL5104188, “Discovery and Characterization of Synthesized and FDA-Approved Inhibitors of Clostridial and Bacillary Collagenases” (J Med Chem, 2022).

The structures appear in SMILES notation. Calls of active or inactive are those of the source. The calls are words filed in the database; no cut-off is given here.

For this assay, the target named is Collagenase ColQ1 (Bacillus cereus) (UniProt B9J3S4). Nature of the assay: Inhibition of full length Bacillus cereus ColQ1 assessed as reduction in Col 1 cleavage at 1.5 to 12.5 uM incubated for 3 hrs by SDS-PAGE analysis. The note with it: dose 1.5-12.5 µM.
Regarding `Cc1ccc2nc(P(=O)(O)O)c(P(=O)(O)O)nc2c1`, the inhibition result is “Active”.
As for `CC(=O)Nc1cccc(OCc2cn(CCNC(=O)C(CC(C)C)C(=O)NO)nn2)c1` (stereo not drawn), the entry is “Active”.
For `CC(=O)Nc1ccc(OCc2cn(CCNC(=O)C(CC(C)C)C(=O)NO)nn2)cc1` (stereo not drawn), the inhibition entry is “Active”.
The entry for `O=P(O)(O)c1nc2ccc(-c3ccc(Cl)cc3)cc2nc1P(=O)(O)O` is “Active”; for `O=P(O)(O)c1nc2ccc(Cl)cc2nc1P(=O)(O)O` it is “Active”; for `CC(C)CC(C(=O)NO)C(=O)NCCn1cc(COc2ccccc2)nn1` (stereo not drawn) it is “Active”.
With `CC(C)CC(C(=O)NO)C(=O)NCCn1cc(CSc2ccccc2)nn1` (stereo not drawn), the inhibition result was “Active”.
As for `O=C(Nc1ccc(Cl)c(Cl)c1)c1ccc2nc(P(=O)(O)O)c(P(=O)(O)O)nc2c1`, the entry is “Active”.
